1 compound from patent US20100311717A1, “METHODS AND COMPOSITIONS FOR RETARDING WEIGHT GAIN ASSOCIATED WITH USE OF ATYPICAL ANTIPSYCHOTIC DRUGS” (priority 2007, published 2010) can be followed below.

SMILES strings stand for the structures.

The conditions of this data set: human, in vivo.

Regarding `Cc1cc2c(s1)Nc1ccccc1N=C2N1CCN(C)CC1` [olanzapine], the weight gained is on record as 20-40 pounds.
